Laboratory results: ChEMBL document CHEMBL3880382, “TRH-like peptide derivatives as inhibitors of the TRH-degrading ectoenzyme” (2010)

Amino acid sequences for entries named in this document (tags omitted). Chains listed by the source or under a name are the forms on record and can include a tag or linker.
UniProt A0A287AP33, as listed by the source: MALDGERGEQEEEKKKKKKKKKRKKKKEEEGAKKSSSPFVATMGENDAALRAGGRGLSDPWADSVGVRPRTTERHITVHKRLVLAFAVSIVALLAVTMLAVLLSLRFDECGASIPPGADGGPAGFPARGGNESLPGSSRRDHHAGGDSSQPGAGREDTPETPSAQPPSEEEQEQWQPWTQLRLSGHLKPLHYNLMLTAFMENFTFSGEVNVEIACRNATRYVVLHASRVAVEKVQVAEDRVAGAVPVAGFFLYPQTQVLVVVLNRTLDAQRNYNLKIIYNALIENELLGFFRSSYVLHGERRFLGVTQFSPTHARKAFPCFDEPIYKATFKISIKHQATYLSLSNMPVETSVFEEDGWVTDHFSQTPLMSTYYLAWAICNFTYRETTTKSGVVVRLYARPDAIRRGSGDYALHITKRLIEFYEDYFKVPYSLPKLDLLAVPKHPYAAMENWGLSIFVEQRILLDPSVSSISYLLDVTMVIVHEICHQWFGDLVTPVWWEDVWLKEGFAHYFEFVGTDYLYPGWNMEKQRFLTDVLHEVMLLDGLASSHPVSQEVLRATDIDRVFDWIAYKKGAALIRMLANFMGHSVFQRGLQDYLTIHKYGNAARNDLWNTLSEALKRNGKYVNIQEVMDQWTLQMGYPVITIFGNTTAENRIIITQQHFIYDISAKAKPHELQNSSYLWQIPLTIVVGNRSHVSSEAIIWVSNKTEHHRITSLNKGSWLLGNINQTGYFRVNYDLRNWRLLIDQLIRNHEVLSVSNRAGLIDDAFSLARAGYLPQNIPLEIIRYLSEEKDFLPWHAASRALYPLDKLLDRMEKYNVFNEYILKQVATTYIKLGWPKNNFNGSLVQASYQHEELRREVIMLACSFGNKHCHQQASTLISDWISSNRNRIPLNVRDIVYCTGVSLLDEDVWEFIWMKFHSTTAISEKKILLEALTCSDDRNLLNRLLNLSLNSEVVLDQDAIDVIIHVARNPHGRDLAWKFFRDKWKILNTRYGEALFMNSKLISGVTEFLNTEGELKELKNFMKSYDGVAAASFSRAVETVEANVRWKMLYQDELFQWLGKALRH

Target: Thyrotropin releasing hormone degrading enzyme (Sus scrofa) (UniProt A0A287AP33)
Assay: Substrate activity at pig brain TRH-DE assessed as retention time at 1 mM incubated for 18 hrs by HPLC analysis

Retention time: 13.2 min
SMILES: NC(=O)C[C@H](NC(=O)[C@@H]1CCC(=O)N1)C(=O)N1CCC[C@H]1C(=O)Nc1ccccc1O
